Results reported in US20240092758A1, “IMIDAZOLO INDAZOLE COMPOUNDS AS JAK INHIBITORS” (Theravance Biopharma R&D IP, LLC, priority 2021, published 2024).

The chains behind the UniProt entries cited, without tags or fusion partners.
UniProt O60674, whole entry: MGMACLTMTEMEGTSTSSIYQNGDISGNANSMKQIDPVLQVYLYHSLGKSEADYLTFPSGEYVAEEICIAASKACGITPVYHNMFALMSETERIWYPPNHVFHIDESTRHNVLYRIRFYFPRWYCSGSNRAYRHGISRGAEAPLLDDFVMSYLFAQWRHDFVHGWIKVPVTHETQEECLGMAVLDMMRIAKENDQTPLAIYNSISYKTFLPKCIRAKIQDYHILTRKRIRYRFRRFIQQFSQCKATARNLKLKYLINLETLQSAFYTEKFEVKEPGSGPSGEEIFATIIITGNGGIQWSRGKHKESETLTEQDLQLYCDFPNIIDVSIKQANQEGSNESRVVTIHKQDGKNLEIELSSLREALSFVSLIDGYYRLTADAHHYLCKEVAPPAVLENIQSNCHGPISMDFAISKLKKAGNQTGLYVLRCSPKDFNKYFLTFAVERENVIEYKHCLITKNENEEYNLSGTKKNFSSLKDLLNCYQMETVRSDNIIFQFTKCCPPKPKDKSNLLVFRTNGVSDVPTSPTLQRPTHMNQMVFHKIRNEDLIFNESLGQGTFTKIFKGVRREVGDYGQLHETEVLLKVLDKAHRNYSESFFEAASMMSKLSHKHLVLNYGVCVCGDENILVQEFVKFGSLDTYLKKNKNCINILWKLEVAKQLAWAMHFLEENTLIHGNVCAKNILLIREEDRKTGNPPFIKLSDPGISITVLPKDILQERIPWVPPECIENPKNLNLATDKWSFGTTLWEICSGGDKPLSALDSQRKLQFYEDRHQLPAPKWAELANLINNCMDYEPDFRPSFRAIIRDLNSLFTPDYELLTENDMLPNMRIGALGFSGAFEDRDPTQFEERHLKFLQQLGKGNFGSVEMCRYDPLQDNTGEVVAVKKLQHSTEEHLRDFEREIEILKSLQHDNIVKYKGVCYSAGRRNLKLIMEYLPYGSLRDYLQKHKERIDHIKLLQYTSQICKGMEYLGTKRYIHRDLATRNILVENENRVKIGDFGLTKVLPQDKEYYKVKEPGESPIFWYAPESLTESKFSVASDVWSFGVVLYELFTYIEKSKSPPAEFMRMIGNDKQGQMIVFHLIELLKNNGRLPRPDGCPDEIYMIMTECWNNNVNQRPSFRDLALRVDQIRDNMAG
UniProt P23458, whole entry: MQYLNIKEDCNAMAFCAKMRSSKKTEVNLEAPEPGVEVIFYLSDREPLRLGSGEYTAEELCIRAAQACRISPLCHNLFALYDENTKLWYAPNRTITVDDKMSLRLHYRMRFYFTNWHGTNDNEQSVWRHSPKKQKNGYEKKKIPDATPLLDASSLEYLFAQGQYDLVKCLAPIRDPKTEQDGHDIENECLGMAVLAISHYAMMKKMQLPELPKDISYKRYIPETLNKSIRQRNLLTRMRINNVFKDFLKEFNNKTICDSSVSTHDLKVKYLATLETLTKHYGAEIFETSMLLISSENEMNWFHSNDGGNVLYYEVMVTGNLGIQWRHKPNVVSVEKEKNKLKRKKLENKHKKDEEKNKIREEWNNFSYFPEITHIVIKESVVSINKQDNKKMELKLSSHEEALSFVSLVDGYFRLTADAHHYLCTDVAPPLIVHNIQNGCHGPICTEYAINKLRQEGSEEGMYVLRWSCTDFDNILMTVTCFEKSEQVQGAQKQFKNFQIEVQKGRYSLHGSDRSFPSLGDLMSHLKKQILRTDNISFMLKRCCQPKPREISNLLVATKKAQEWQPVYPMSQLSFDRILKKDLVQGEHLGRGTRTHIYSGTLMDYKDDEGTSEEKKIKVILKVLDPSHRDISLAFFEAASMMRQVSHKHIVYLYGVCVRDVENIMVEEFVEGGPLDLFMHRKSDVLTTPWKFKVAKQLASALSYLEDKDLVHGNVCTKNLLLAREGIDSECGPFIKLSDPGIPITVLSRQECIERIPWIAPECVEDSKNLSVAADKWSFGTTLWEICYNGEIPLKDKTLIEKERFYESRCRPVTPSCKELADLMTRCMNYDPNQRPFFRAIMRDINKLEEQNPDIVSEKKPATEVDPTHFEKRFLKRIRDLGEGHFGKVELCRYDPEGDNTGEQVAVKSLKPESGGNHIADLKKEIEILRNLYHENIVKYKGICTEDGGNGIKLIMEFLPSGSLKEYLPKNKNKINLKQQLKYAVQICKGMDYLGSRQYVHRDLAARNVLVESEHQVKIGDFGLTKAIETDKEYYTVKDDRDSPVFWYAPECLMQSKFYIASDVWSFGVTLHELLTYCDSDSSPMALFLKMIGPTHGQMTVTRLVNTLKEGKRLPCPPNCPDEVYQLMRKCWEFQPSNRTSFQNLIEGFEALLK

Experiments:
[1] = target: JAK2 (Homo sapiens (Human), UniProt O60674); experiment: Biochemical JAK kinase assay (LanthaScreen), JAK2
Description: (§1) A panel of four LanthaScreen JAK biochemical assays (JAK1, 2, 3 and Tyk2) were carried in a common kinase reaction buffer (50 mM HEPES, pH 7.5, 0.01% Brij-35, 10 mM MgCl2, and 1 mM EGTA). Recombinant GST-tagged JAK enzymes and a GFP-tagged STAT1 peptide substrate were obtained from Life Technologies.
(§2) Serially diluted compounds were pre-incubated with each of the four JAK enzymes and the substrate in white 384-well microplates (Corning) at ambient temperature for 1 h. ATP was subsequently added to initiate the kinase reactions in 10 μL total volume, with 1% DMSO. The final enzyme concentrations for JAK1, 2, 3 and Tyk2 are 4.2 nM, 0.1 nM, 1 nM, and 0.25 nM respectively; the corresponding Km ATP concentrations used are 25 μM, 3 μM, 1.6 μM, and 10 μM; while the substrate concentration is 200 nM for all four assays. Kinase reactions were allowed to proceed for 1 hour at ambient temperature before a 10 μL preparation of EDTA (10 mM final concentration) and Tb-anti-pSTAT1 (pTyr701) antibody (Life Technologies, 2 nM final concentration) in TR-FRET dilution buffer (Life Technologies) was added. The plates were allowed to incubate at ambient temperature for 1 h before being read on the EnVision reader (Perkin Elmer). Emission ratio signals (520 nm/495 nm) were recorded and utilized to calculate the percent inhibition values based on DMSO and background controls.
(§3) For dose-response analysis, percent inhibition data were plotted vs. compound concentrations, and IC50 values were determined from a 4-parameter robust fit model with the Prism software (GraphPad Software). Results were expressed as pIC50 (negative logarithm of IC50) and subsequently converted to pKi (negative logarithm of dissociation constant, Ki) using the Cheng-Prusoff equation.
(§4) Test compounds having a lower Ki value or higher pKi value in the four JAK assays show greater inhibition of JAK activity.

[2] = target: JAK1 (Homo sapiens (Human), UniProt P23458); experiment: Biochemical JAK kinase assay (LanthaScreen), JAK1
Description: as §1, §2, §3, §4

[3] = system: IL-13 induced STAT6 phosphorylation in BEAS-2B human lung epithelial cells; experiment: Cellular JAKI potency assay (BEAS-2B); conditions: BEAS-2B cells
Description: The JAKI cellular potency assay was carried out by measuring inhibition of interleukin-13 (IL-13, R&D Systems) induced STAT6 phosphorylation in BEAS-2B human lung epithelial cells (ATCC). BEAS-2B cells were grown at 37° C. in a 5% CO2 humidified incubator in 50% DMEM/50% F-12 medium (Life Technologies) supplemented with 10% FBS (Hyclone), 100 U/mL penicillin, 100 μg/mL streptomycin (Life Technologies), and 2 mM GlutaMAX (Life Technologies). On day 1 of the assay, cells were seeded at a 7,500 cells/well density in white poly-D-lysine-coated 384-well plates (Corning) with 25 μL medium and were allowed to adhere overnight in the incubator. On day 2 of the assay, the medium was removed and replaced with 12 μL of assay buffer (Hank's Balanced Salt Solution/HBSS, 25 mM HEPES, and 1 mg/ml bovine serum albumin/BSA) containing dose-responses of test compounds. Compounds were serially diluted in DMSO and then diluted another 1000-fold in media to bring the final DMSO concentration to 0.1%. Cells were incubated with test compounds at 37° C. for 1 h and followed by the addition of 12 μl of pre-warmed IL-13 (80 ng/mL in assay buffer) for stimulation. After incubating at 37° C. for 30 min, the assay buffer (containing compound and IL-13) was removed, and 10 μL of cell lysis buffer (25 mM HEPES, 0.1% SDS, 1% NP-40, 5 mM MgCl2, 1.3 mM EDTA, 1 mM EGTA, supplemented with Complete Ultra mini protease inhibitors and PhosSTOP from Roche Diagnostics). The plates were shaken at ambient temperature for 30 min before the addition of detection reagents. Levels of pSTAT6 were measured using the AlphaLISA SureFire Ultra pSTAT6 (Tyr641) assay kit from PerkinElmer. For dose-response analysis, percent inhibition data were plotted vs. compound concentrations, and IC50 values were determined from a 4-parameter robust fit model with the Graphpad Prism software. Results are expressed as the negative logarithm of the IC50 value, pIC50.
Test compounds having a lower IC50 value or higher pIC50 value in this assay show greater inhibition of IL-13 induced STAT6 phosphorylation.

SMILES	JAK2 pKi [1]	JAK1 pKi [2]	BEAS2B pIC50 [3]
CCc1cc(O)ccc1-c1ccc2c(-c3nc(C4=C[C@@H](C)N[C@H](C)C4)c[nH]3)n[nH]c2c1 (relative stereo)	B (B represents a pKi value between 9 (included) and 10 (Ki between 1 nM and 0.1 nM))	B (B represents a pKi value between 9 (included) and 10 (Ki between 1 nM and 0.1 nM))	C (C represents a pIC50 value between 7 (included) and 7.5)
CCc1cc(O)ccc1-c1ccc2c(-c3nc(C4=CCNC4)c(Br)[nH]3)n[nH]c2c1F	B (B represents a pKi value between 9 (included) and 10 (Ki between 1 nM and 0.1 nM))	C (C represents a pKi value between 8 (included) and 9 (Ki between 10 nM and 1 nM))	C (C represents a pIC50 value between 7 (included) and 7.5)
CCc1cc(O)ccc1-c1ccc2c(-c3nc(C4=C[C@@H](C)N[C@H](C)C4)c[nH]3)n[nH]c2c1F (relative stereo)	B (B represents a pKi value between 9 (included) and 10 (Ki between 1 nM and 0.1 nM))	B (B represents a pKi value between 9 (included) and 10 (Ki between 1 nM and 0.1 nM))	C (C represents a pIC50 value between 7 (included) and 7.5)
CCc1cc(O)ccc1-c1ccc2c(-c3nc(C4=C[C@@H](C)N[C@@H](C)C4)c[nH]3)n[nH]c2c1F (relative stereo)	B (B represents a pKi value between 9 (included) and 10 (Ki between 1 nM and 0.1 nM))	B (B represents a pKi value between 9 (included) and 10 (Ki between 1 nM and 0.1 nM))	C (C represents a pIC50 value between 7 (included) and 7.5)
